According to PubChem BioAssay AID1789 (The Scripps Research Institute Molecular Screening Center, 2009):
The list shows a part of the results, in another mix than the full data. Active and inactive are the calls of the source.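 Rule for the calls: active = inhibition above the screen-wide mean plus 3 SD, computed separately per campaign (cut at about 16% in these data); inactive = the rest.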

These molecules were tested on Heat shock protein HSP 90 (rabbit reticulocyte lysate; luciferase refolding) (assay: inhibitors of HSP90 chaperone activity – cell lysate, luminescence, primary screen (AID 1789;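 note: 0% = DMSO wells and 100% = 60 µM geldanamycin wells; inhibitors lower the luminescence because luciferase stays unfolded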)). Settings: 3 h, at 5.6 µM, stronger effect = higher value.

SMILES	inhibition
O=C(NCC1(N2CCCCC2)CCCCC1)c1ccc(OC(F)F)cc1	inactive: -1.97%
N#CC1(Nc2ccccc2)CCN(CCc2ccccc2)CC1	inactive: -1.13%
CCN1CCC(Nc2ccc(Cl)cc2)CC1	inactive: -2.93%
O=C(NCC1(N2CCCCC2)CCCCC1)c1cccc([N+](=O)[O-])c1	inactive: -0.41%
O=C(NCC1(N2CCCCC2)CCCCC1)c1cccc(C(F)(F)F)c1	inactive: -3.15%
COc1cc(C(=O)NCC2(N3CCCCC3)CCCCC2)ccc1OC(F)F	inactive: -5.42%
O=C(NCC1(N2CCOCC2)CCCCC1)c1cc(=O)[nH]c2ccccc12	inactive: -0.68%
CN1CCN(CCOC(=O)C(O)(c2ccccc2)c2ccccc2)CC1	inactive: 2.25%
COc1ccc(NC2CCN(C(=O)OC(C)(C)C)CC2)cc1	inactive: -4.72%
CC(C)c1ccc(NC2CCN(C(=O)OC(C)(C)C)CC2)cc1	inactive: -0.3%
CN(C)c1cccc(C(=O)NCC2(N3CCCCC3)CCCCC2)c1	inactive: -0.12%
COc1ccc(CN(CCCl)CCCl)cc1Cl	inactive: -3.27%
COc1cc(OC)c(C(=O)NCC2(N(C)C)CCCCC2)cc1OC	inactive: -4.87%
CN1CCC(Nc2cccc(F)c2)CC1	inactive: -0.98%
CCCOc1ccc(C(=O)NCC2(N(C)C)CCCCC2)cc1OC	inactive: 3.06%
COc1ccc(C(=O)NCC2(N3CCCCC3)CCCCC2)c(OC)c1OC	inactive: -0.75%
CC(C)(C)OC(=O)N1CCC(N(C(=O)c2ccccc2)c2ccc(F)cc2)CC1	inactive: -2.57%
COc1ccc(C(=O)NCC2(N3CCCCC3)CCCCC2)cc1	inactive: 3.79%
O=C(NCC1(N2CCCCC2)CCCCC1)c1ccc(=O)[nH]c1	inactive: -0.33%
CSc1ccccc1C(=O)NCC1(N2CCCCC2)CCCCC1	inactive: 3.58%
Cc1cc(C)cc(N(C(=O)c2ccccc2)C2CCN(C(=O)OC(C)(C)C)CC2)c1	inactive: 3.63%
O=C(NCC1(N2CCOCC2)CCCCC1)c1cc2ccccc2o1	inactive: -3.5%
N#CC1(Nc2ccccc2)CCN(Cc2ccccc2)CC1	inactive: -1.05%
O=C(OC1CN2CCC1CC2)C1c2ccccc2Oc2ccccc21 (centres undefined)	inactive: 3.33%
CCOC(=O)N1CCC(Nc2ccc(OC)cc2)CC1	inactive: 0.26%
CCOc1ccc(C)cc1CN(CCCl)CCCl	inactive: -0.51%
COc1ccc(NC2CCN(CCc3ccccc3)CC2)c(OC)c1	inactive: -4.35%

SMILES	inhibition
CCOC(=O)N1CCC(Nc2ccc(F)cc2)CC1	inactive: 6.74%
O=C(NCC1(N2CCCCC2)CCCCC1)c1ccc(F)cc1	inactive: -4.81%
Cc1ccc(OCC(C)C)c(CN(CCCl)CCCl)c1	inactive: 0.75%
CCOC(=O)N1CCC(Nc2cccc(C)c2)CC1	inactive: 1.46%
COc1cc(C(=O)NCC2(N(C)C)CCCCC2)ccc1OC(F)F	inactive: 0.85%
COc1cc(OC)cc(C(=O)NCC2(N3CCCCC3)CCCCC2)c1	inactive: 5.21%
CCN1CCC(Nc2cccc(F)c2)CC1	inactive: 3.3%
CN(C)c1ccc(C(=O)NCC2(N3CCCCC3)CCCCC2)cc1	inactive: -2.77%
CN1CCC(Nc2ccc(F)c(Cl)c2)CC1	inactive: -1.96%
CCOc1ncccc1C(=O)NCC1(N2CCOCC2)CCCCC1	inactive: 2.94%
O=C(O)C1(Nc2ccccc2)CCN(Cc2ccccc2)CC1	inactive: -1.8%
CC(C)(C)OC(=O)N1CCC(Nc2ccccc2)CC1	inactive: 1.37%
CCCOc1ccc(C(=O)NCC2(N(C)C)CCCCC2)cc1	inactive: -0.18%
COc1cc(OC)cc(C(=O)NCC2(N3CCOCC3)CCCCC2)c1	inactive: 4.78%
COc1cccc(C(=O)N(c2cc(C)cc(C)c2)C2CCN(C(=O)OC(C)(C)C)CC2)c1	inactive: 0.49%
CCC(CO)(C(=O)OC1CN2CCC1CC2)c1ccccc1 (centres undefined)	inactive: -2.36%
CN1CCC(Nc2ccc(Cl)cc2)CC1	inactive: -6.24%
CCCOc1ccc(C)cc1CN(CCCl)CCCl	inactive: -3.34%
COc1ccc(C(=O)NCC2(N3CCOCC3)CCCCC2)cc1OC	inactive: -0.94%
CCOC(=O)N1CCC(Nc2ccc(C)cc2)CC1	inactive: -2.9%
N/C(=N\O)c1c(N)no[n+]1[O-]	inactive: 8.2%
O=C(OC1CN2CCC1CC2)C1c2ccccc2C=Cc2ccccc21 (centres undefined)	inactive: 3.73%
N#Cc1ccc(C(=O)NCC2(N3CCCCC3)CCCCC2)cc1	inactive: 9.35%
CC(C)(C)OC(=O)N1CCC(N(C(=O)c2ccccc2)c2ccc(Cl)cc2)CC1	inactive: 8.83%
CN(C)C1(CNC(=O)c2cccc(C#N)c2)CCCCC1	inactive: 0.43%
CCCN1CCC(Nc2cc(OC)cc(OC)c2)CC1	inactive: -2.66%
c1ccc(CN2CCC(Nc3ccccc3)CC2)cc1	inactive: -0.48%
